Test results published in patent US20110275699A1 (UNIVERSITY OF CALIFORNIA, published 2011).

Protein sequences, listed by entry. Tags and fused reporters are not part of them. Lines headed by an entry give the natural chain unless they say otherwise; changes in a name come on top.
UniProt Q02880: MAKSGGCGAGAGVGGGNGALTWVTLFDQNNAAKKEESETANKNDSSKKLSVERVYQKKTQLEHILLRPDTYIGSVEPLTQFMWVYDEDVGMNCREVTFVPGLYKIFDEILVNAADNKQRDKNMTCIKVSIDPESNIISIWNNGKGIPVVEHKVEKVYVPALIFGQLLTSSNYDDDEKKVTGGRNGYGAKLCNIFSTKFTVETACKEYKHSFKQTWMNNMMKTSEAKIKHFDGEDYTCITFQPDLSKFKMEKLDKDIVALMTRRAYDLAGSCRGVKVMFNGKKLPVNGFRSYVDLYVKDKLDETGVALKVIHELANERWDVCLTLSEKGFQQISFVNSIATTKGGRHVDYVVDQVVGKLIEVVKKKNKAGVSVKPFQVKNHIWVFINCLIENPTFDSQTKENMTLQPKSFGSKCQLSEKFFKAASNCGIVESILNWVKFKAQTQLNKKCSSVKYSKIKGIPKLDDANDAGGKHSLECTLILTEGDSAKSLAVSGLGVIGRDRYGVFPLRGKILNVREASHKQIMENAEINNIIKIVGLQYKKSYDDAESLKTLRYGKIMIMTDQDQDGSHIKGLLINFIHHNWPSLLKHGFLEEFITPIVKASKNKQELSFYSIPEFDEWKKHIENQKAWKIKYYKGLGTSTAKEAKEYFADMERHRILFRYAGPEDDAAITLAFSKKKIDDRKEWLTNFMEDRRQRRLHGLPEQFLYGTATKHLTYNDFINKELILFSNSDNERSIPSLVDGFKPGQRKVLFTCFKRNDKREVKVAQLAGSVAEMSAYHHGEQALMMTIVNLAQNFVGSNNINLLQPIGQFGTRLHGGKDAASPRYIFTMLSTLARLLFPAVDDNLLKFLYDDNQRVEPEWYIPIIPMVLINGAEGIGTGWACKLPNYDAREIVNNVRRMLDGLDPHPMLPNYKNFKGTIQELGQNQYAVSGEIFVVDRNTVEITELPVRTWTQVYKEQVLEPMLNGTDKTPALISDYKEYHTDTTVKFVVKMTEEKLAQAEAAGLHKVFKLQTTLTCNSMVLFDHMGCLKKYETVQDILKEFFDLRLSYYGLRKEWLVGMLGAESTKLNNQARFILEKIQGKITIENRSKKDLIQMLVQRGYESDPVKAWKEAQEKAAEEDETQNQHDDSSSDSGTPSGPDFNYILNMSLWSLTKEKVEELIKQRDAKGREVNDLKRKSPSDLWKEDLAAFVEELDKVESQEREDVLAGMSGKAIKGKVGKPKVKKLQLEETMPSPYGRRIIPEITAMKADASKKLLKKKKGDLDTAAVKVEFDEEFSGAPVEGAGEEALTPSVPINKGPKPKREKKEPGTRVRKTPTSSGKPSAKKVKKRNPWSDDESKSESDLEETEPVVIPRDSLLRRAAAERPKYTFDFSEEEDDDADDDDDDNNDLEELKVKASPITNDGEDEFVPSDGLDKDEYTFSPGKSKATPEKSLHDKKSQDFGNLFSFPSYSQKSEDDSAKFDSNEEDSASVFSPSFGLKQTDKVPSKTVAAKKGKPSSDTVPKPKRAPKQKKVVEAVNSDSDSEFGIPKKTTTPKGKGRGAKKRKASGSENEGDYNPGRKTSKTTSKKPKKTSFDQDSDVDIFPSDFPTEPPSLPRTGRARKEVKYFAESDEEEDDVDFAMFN

What was measured:
Assay in all cases: GST pull-down, direct interaction
[1] = molecular target: TopoIIβ, in vitro translated 35S-labeled (UniProt Q02880, 35S-labeled)
Description: (§1) Purified USF-1 complex was subjected to autoradiography (left) for labeled proteins. GST protein alone was used as a control. USF-1-GST fusion protein was incubated with purified recombinant PARP-1 or PP1 before subjection to GST pull-down and immunoblotting (top right) for indicated proteins. GST and GSTUSF proteins after SDS-PAGE were stained with Coomassie blue (bottom right). (B) Detection of USF-1 complex: TAP eluates were separated by BN-PAGE and then subjected to Western blotting with anti-FLAG for USF-1. In lanes 2 and 3, supershift assays were carried out with 2 μg polyclonal anti-USF-1 (lanes 2) or 2 μg control polyclonal anti-GAPDH (lane 3). A minor faster migrating complex observed was probably due to partial dissociation of USF-1 interacting proteins from the complex during the sample preparation. (C) A representative ChIP for USF-1 interacting protein association to the p53 promoter in liver (left). p53 gene expression in livers from fasted or fed mice determined by RTqPCR (right). (D) IP of USF-1 interacting proteins from HepG2 cells treated with or without insulin at 100 nM for 30 min. Immunoprecipitates were Western blotted for each of the USF-1 interacting proteins. (E) ChIP analysis for biotin incorporation into 3′-ends of DNA breaks and DNA-PK and TopoIIβ binding to the control FAS coding region in livers from fasted or fed FAS-CAT transgenic or wild type mice.

[2] = molecular target: T1, Ku70, in vitro translated 35S-labeled (UniProt P12956 1-609, limits assumed, 35S-labeled)
T1 sequence (looked up): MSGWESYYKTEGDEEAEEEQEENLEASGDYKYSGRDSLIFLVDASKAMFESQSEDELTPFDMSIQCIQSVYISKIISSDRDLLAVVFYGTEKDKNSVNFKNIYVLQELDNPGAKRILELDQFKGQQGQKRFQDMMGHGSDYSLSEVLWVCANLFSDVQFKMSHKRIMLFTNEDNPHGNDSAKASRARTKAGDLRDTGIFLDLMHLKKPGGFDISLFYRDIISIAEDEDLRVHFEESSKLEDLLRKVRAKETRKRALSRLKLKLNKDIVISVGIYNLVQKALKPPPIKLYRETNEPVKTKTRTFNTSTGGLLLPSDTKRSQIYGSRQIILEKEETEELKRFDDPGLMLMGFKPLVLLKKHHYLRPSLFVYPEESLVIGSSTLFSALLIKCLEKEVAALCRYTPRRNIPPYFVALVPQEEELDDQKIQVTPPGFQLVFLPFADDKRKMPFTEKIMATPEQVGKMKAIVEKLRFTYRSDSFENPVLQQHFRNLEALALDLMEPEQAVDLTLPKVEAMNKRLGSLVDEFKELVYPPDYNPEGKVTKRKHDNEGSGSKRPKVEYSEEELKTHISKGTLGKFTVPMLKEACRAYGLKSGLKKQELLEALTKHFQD
Description: as §1

[3] = molecular target: T2, Ku80, in vitro translated 35S-labeled (UniProt P13010 1-732, limits assumed, 35S-labeled)
T2 sequence (looked up): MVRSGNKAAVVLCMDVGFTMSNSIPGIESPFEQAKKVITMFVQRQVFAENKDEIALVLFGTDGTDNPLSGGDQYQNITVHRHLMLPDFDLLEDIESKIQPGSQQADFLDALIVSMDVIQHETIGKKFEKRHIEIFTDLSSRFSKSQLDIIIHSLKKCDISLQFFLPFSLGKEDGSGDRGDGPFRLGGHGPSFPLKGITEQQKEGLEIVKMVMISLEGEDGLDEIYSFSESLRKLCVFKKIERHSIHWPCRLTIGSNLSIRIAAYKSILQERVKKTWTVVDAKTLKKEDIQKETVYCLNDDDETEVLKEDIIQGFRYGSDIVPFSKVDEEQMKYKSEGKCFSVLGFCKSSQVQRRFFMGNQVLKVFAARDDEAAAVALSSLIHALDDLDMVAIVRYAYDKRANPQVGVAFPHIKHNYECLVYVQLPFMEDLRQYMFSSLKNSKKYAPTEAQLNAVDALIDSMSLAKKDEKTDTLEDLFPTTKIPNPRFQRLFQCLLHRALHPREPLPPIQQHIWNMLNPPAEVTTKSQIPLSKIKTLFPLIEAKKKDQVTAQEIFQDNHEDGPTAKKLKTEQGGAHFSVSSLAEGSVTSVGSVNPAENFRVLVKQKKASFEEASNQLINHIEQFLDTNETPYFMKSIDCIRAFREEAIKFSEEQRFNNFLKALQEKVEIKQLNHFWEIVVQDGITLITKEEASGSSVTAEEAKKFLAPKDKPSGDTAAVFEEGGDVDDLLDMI
Description: as §1

Measured: binding result

B1: Bacterially expressed USF-1-GST fusion protein (other, UniProt P22415 1-310, looked up)
chain: MKGQQKTAETEEGTVQIQEGAVATGEDPTSVAIASIQSAATFPDPNVKYVFRTENGGQVMYRVIQVSEGQLDGQTEGTGAISGYPATQSMTQAVIQGAFTSDDAVDTEGTAAETHYTYFPSTAVGDGAGGTTSGSTAAVVTTQGSEALLGQATPPGTGQFFVMMSPQEVLQGGSQRSIAPRTHPYSPKSEAPRTTRDEKRRAQHNEVERRRRDKINNWIVQLSKIIPDCSMESTKSGQSKGGILSKACDYIQELRQSNHRLSEELQGLDQLQLDNDVLRQQVEDLKNKNLLLRAQLRHHGLEVVIKNDSN
notes: also called GSTUSF; not shown: GST
no binding: all assays above
